Data taken from patent US7375098B2, “8β-vinyl-11β-(ω-substituted)alkyl-estra-1,3,5(10)-trienes” (Schering A.G., priority 2003, dated 2008).

Chains of the proteins cited; added tags and fusions are not shown.
UniProt Q92731, whole entry, species assumed: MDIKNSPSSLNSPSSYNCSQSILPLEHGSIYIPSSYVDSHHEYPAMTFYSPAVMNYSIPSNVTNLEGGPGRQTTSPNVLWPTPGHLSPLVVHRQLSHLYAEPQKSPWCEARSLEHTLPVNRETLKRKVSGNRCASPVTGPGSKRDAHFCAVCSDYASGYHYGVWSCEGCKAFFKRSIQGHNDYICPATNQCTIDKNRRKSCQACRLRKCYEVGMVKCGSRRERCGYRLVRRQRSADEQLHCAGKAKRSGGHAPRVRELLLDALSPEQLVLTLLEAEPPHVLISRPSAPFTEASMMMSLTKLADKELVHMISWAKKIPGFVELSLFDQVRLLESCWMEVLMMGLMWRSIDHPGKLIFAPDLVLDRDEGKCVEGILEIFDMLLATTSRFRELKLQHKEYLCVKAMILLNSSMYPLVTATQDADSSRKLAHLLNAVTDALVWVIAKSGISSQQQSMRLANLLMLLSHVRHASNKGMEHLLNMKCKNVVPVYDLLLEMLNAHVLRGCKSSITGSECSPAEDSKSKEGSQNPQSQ

Target: T1, ERβ (Homo sapiens, UniProt Q92731)
T1 construct: pSG5-ERα/β FL (Heg0/ERβ0); expressed in transfected cells; host or cells: U-20S (U-2 OS) cells, transient transfection with FuGENE 6
Test: Transactivation test for estrogenic agonists and antagonists, ERβ, U-20S cells, luciferase reporter
Assay type: cell-based

C[C@]12CC[C@@H]3c4ccc(O)cc4C[C@@H](CCCCCCCCC[S+]([O-])CCCC(F)(F)C(F)(F)F)[C@H]3[C@@H]1CC[C@@H]2O (some centres unmarked) [Ref.^1, fulvestrant, reference compound]
Efficacy[%] ERβ (luciferase activity): 100% | EMR (EC50 )[%] ERβ (potency relative to reference fulvestrant = 100): 100%
